Laboratory results reported in US11236106B2, “Cycloalkane-1,3-diamine derivative” (Daiichi Sankyo Company, Limited, priority 2018, dated 2022).
Counter-ions that a name gives are not always drawn. Like-named read-outs stand apart in the source and are kept apart here.

Legend:
Test in all cases: cells
Conditions in all cases: Homo sapiens
[1] = tested on: K562 cells
[2] = tested on: MV-4-11 cells
[3] = tested on: MOLM-13 cells
[4] = K562, 72 h, read-out: GI50 (μM) Day3 K562
[5] = K562, 168 h, read-out: GI50 (μM) Day7 K562
[6] = MV4-11, 72 h, read-out: GI50 (μM) Day3 MV4;11, MV4;11, Day3
[7] = MV4-11, 168 h, read-out: GI50 (μM) Day7 MV4;11, MV4;11, Day7
[8] = MOLM-13, 72 h, read-out: GI50 (μM) Day3 MOLM-13, MOLM-13, Day3
[9] = MOLM-13, 168 h, read-out: GI50 (μM) Day7 MOLM-13, MOLM-13, Day7

Compound | GI50 [1, 4] [µM] | GI50 [1, 5] [µM] | GI50 [2, 6] [µM] | GI50 [2, 7] [µM] | GI50 [3, 8] [µM] | GI50 [3, 9] [µM]
COc1cncc(-c2ccc(CN[C@H]3C[C@@H](Nc4ncnc5sc(CC(F)(F)F)cc45)C[C@@H](C(=O)N(C)C)C3)cc2)c1 (single isomer, unassigned) [Example 17A, Hydrochloride] | 8.66 | 5.27 | 2.25 | 1.58 | 3.29 | 3.35
COc1cncc(-c2ccc(CN[C@@H]3C[C@H](Nc4ncnc5sc(CC(F)(F)F)cc45)C[C@H](C(=O)N(C)C)C3)cc2)c1 (single isomer, unassigned) [Example 17B, Hydrochloride] | > 10 | 7.25 | 0.17 | 0.118 | 5 | 0.31
C=CC(=O)NCCCNC(=O)c1ccc(CN[C@H]2CC[C@@H](N(C)c3ncnc4sc(CC(F)(F)F)cc34)C2)cc1 [Example 6, 4-({[(1S,3R)-3-{methyl[6-(2,2,2-trifluoroethyl)thieno[2,3-d]pyrimidin-4-yl]amino}cyclopentyl]amino}methyl)-N-{3-[(prop-2-enoyl)amino]propyl}benzamide Hydrochloride] | > 10 | 6.89 | 0.679 | 0.439 | – | 1.1
CN(c1ncnc2sc(CC(F)(F)F)cc12)[C@@H]1CC[C@H](NCc2ccc(NCc3ccccc3)cc2)C1 [Example 7, (1R,3S)—N^3-{[4-(benzylamino)phenyl]methyl}-N^1-methyl-N^1-[6-(2,2,2-trifluoroethyl)thieno[2,3-d]pyrimidin-4-yl]cyclopentane-1,3-diamine Hydrochloride] | 1.67 | 0.95 | 1.36 | 0.908 | 1.69 | 1.82
COc1cncc(Nc2ccc(CN[C@H]3CC[C@@H](N(C)c4ncnc5sc(CC(F)(F)F)cc45)C3)cc2)c1 [Example 8, (1R,3S)—N^3-({4-[(5-methoxypyridin-3-yl)amino]phenyl}methyl)-N^1-methyl-N^1-[6-(2,2,2-trifluoroethyl)thieno[2,3-d]pyrimidin-4-yl]cyclopentane-1,3-diamine Hydrochloride] | 2.73 | 1.44 | 0.408 | 0.201 | 0.87 | 0.592
COc1cncc(-c2ccc(CN[C@H]3CC[C@@H](N(C)c4ncnc5sc(CC6CC6)cc45)C3)cc2)c1 [Example 9, (1R,3S)—N^1-[6-(cyclopropylmethyl)thieno[2,3-d]pyrimidin-4-yl]-N^3-{[4-(5-methoxypyridin-3-yl)phenyl]methyl}-N^1-methylcyclopentane-1,3-diamine Hydrochloride] | 2.95 | – | 0.585 | – | 1.61 | –
O=C(NC1COC1)c1ccc(CN[C@H]2CCC[C@@H](Nc3ncnc4sc(CC(F)(F)F)cc34)C2)cc1 [Example 10, N-(oxetan-3-yl)-4-({[(1S,3R)-3-{[6-(2,2,2-trifluoroethyl)thieno[2,3-d]pyrimidin-4-yl]amino}cyclohexyl]amino}methyl)benzamide Hydrochloride] | > 10 | – | > 10 | – | > 10 | –
CN(c1ncnc2sc(CC(F)(F)F)cc12)[C@@H]1CC[C@H](NCc2ccc(-c3ccc(=O)[nH]c3)cc2)C1 [Example 11, 5-[4-({[(1S,3R)-3-{methyl[6-(2,2,2-trifluoroethyl)thieno[2,3-d]pyrimidin-4-yl]amino}cyclopentyl]amino}methyl)phenyl]pyridin-2(1H)-one Hydrochloride] | 6.66 | 3.82 | 1.3 | 0.711 | 3.28 | 1.19
CN(c1ncnc2sc(CC(F)(F)F)cc12)[C@@H]1CC[C@H](NCc2ccc(Nc3cnn(C)c3)cc2)C1 [Example 12, (1R,3S)—N^1-methyl-N^3-({4-[(1-methyl-1H-pyrazol-4-yl)amino]phenyl}methyl)-N^1-[6-(2,2,2-trifluoroethyl)thieno[2,3-d]pyrimidin-4-yl]cyclopentane-1,3-diamine] | 6.72 | – | 0.702 | – | 2.72 | –
CN(c1ncnc2sc(CC(F)(F)F)cc12)[C@@H]1CC[C@H](NCc2ccc(-c3ccc(-c4ccc(Cl)nc4)nc3)cc2)C1 [Example 13, (1R,3S)—N^3-{[4-(6′-chloro[2,3′-bipyridine]-5-yl)phenyl]methyl}-N^1-methyl-N^1-[6-(2,2,2-trifluoroethyl)thieno[2,3-d]pyrimidin-4-yl]cyclopentane-1,3-diamine] | 2.16 | – | 0.273 | – | 1.01 | –
CN(c1ncnc2sc(CC(F)(F)F)cc12)[C@@H]1CC[C@H](NCc2ccc(-c3cnc4ccoc4c3)cc2)C1 [Example 14, (1R,3S)—N^3-{[4-(furo[3,2-b]pyridin-6-yl)phenyl]methyl}-N^1-methyl-N^1-[6-(2,2,2-trifluoroethyl)thieno[2,3-d]pyrimidin-4-yl]cyclopentane-1,3-diamine Hydrochloride] | 2.23 | – | 0.655 | – | 1.48 | –
COc1cncc(-c2ccc(CN(C)[C@@H]3C[C@H](O)C[C@H](Nc4ncnc5sc(CC(F)(F)F)cc45)C3)cc2)c1 [Example 16, (1R,3S,5R)-3-[{[4-(5-methoxypyridin-3-yl)phenyl]methyl}(methyl)amino]-5-{[6-(2,2,2-trifluoroethyl)thieno[2,3-d]pyrimidin-4-yl]amino}cyclohexan-1-ol] | 7.43 | – | 5.18 | – | 6.04 | –
COc1cncc(-c2ccc(CN[C@@H]3C[C@H](N(C)c4ncnc5sc(CC(F)(F)F)cc45)[C@H](O)[C@@H]3O)cc2)c1 [Example 20A, (1S,2R,3R,5S)-3-({[4-(5-methoxypyridin-3-yl)phenyl]methyl}amino)-5-{methyl[6-(2,2,2-trifluoroethyl)thieno[2,3-d]pyrimidin-4-yl]amino}cyclopentane-1,2-diol Hydrochloride] | 5.73 | 2.86 | 0.367 | 0.177 | 2.9 | 0.352
COc1cncc(-c2ccc(CN[C@@H]3C[C@H](N(C)c4ncnc5sc(CC(F)(F)F)cc45)[C@@H](O)[C@H]3O)cc2)c1 [Example 20B, (1R,2S,3R,5S)-3-({[4-(5-methoxypyridin-3-yl)phenyl]methyl}amino)-5-{methyl[6-(2,2,2-trifluoroethyl)thieno[2,3-d]pyrimidin-4-yl]amino}cyclopentane-1,2-diol Hydrochloride] | 9.03 | 4.65 | 0.331 | 0.226 | 4.02 | 0.379
CN(c1nc(N)nc2sc(CC(F)(F)F)cc12)[C@H]1C[C@@H](NCc2ccc(-n3ccnc3)cc2)C[C@H]1O [Example 21, (1R,2S,4R)-2-{[2-amino-6-(2,2,2-trifluoroethyl)thieno[2,3-d]pyrimidin-4-yl](methyl)amino}-4-({[4-(1H-imidazol-1-yl)phenyl]methyl}amino)cyclopentan-1-ol Hydrochloride] | 5.75 | 9.6 | 0.304 | 0.173 | 4.5 | 0.509
